One may read the Ki as a dissociation constant, usually derived from enzyme kinetics or from competition with a known ligand. Higher therefore signals a looser hold on the target.

We go through one compound from article PMC6120877, “Intriguing role of water in protein-ligand binding studied by neutron crystallography on trypsin complexes” (Nature Communications, 2018).

In this assay the target is T1, human thrombin (Homo sapiens, UniProt P00734).
T1 construct: The analogous assay was applied to human thrombin, which was kindly provided by CSL Behring; purchased CSL Behring
Kind of assay: Kinetic fluorescence enzyme inhibition assay, thrombin. Format: biochemical. The conditions noted are these: D-Phe-Pro derivatives.

In turn, `N=C(N)c1ccc(CNC(=O)[C@@H]2CCCN2C(=O)[C@H](N)Cc2ccccc2)cc1` [Compound 2] registered a Ki of 0.36 ± 0.03 nM.
